Experimental data from patent publication US9040725B2, “Benzocycloheptane and benzoxepine derivatives” (Janssen Pharmaceutica NV, priority 2008, dated 2015).

Protein sequences, listed by entry. Tags and fused reporters are not part of them.
UniProt Q92847, whole entry: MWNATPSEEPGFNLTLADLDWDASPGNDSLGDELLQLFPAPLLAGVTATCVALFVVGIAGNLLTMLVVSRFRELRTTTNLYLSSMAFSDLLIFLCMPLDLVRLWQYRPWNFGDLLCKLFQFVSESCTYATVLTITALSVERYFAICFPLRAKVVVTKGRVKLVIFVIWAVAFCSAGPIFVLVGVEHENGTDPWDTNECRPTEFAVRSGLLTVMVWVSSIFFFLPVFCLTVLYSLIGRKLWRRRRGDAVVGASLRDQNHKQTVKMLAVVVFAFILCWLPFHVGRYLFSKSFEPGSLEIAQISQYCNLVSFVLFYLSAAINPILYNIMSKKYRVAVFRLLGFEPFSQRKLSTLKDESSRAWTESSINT

Experiments:
GHS1A-receptor = GHS1A-receptor (Homo sapiens, UniProt Q92847); assay: Ghrelin-agonism in HEK293 cells (intracellular calcium, FLIPR); assay type: cell-based; settings: HEK293 cells permanently transfected with GHS1A-receptor, calcium fluorescence (fluo-4 or Kit-3), EC50 in M, tested form: oxalate
NMRI-mice = assay: Acceleration of gastric emptying and small intestinal propulsion in NMRI-mice; assay type: in vivo; settings: lowest active dose, subcutaneous, 30 min before phenol red test meal, tested form: oxalate
Experimental: Male NMRI-mice weighing around 25 gram were fasted for 20 h and had free access to drinking water. Test compounds were administered to the animals by subcutaneous route 30 min before they were given a test meal by oral gavage. The test meal consisted of 0.3 ml of a chocolate nutridrink solution (1.0 kcal/ml) containing phenol red marker (5 mg/ml). Fifteen min after administration of the meal, the mice were sacrificed by CO2 gas inhalation. The phenol red content remaining in the stomach (extracted from the stomach with NaOH) was determined at 557 nm in a spectrophotometer and expressed as extinction units. Small intestinal propulsion was determined as the distance traveled by the phenol red marker through the intestine and expressed as a percentage of total small intestinal length (from the pylorus to the ileo-cecal junction).
The lowest dose that was active for each parameter was noted as the lowest active dose (LAD). Table 12 discloses LAD values.

CN(C)CCC[C@@]1(O)c2ccccc2CCC[C@@H]1c1ccc(Cl)cc1 (single isomer, unassigned)
pEC50 (GHS1A-receptor): 5.5
LAD (mg/kg) Small intestinal propulsion (NMRI-mice; active when >60% of animals had phenol red front beyond 85% of small intestinal length): >10 mg/kg
LAD (mg/kg) Gastric emptying (NMRI-mice; stomach content 15 min after meal, active when >60% of animals below 0.9 extinction units): >10 mg/kg
